Results on 1 molecule are retold here after article PMC5063977 (The Journal of Biological Chemistry, 2016).

Chains of the proteins cited; added tags and fusions are not shown. Residues count along the entry.
UniProt O60894, 27-148: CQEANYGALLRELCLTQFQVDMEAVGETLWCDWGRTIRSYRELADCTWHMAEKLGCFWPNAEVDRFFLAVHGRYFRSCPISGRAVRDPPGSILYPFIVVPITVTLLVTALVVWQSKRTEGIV
UniProt Q16602, 23-461: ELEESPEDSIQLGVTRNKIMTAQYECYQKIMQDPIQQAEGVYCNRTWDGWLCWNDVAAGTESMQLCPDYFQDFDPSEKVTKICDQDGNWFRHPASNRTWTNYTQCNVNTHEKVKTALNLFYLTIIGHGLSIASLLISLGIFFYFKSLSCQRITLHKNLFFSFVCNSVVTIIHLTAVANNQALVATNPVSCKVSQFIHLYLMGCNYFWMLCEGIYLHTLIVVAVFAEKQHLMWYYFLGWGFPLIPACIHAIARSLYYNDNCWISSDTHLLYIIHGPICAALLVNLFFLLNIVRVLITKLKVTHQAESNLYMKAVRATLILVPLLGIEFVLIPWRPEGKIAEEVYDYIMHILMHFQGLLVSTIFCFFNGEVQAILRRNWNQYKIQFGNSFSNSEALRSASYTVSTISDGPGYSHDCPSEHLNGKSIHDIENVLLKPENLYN
UniProt O60895, 43-175: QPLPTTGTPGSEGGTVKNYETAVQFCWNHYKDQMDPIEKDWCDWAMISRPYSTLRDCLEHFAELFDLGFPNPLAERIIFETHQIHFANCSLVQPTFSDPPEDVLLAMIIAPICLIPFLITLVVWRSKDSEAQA

Each structure is given as a SMILES string.

Common to all, as to format: cell-based
Assay [1] addresses T1, RAMP1-CLR (CGRP receptor) (Homo sapiens, UniProt O60894+Q16602).
T1 construct: FLAG; expressed in transfected cells; host or cells: HEK-293 or HEK-293S cells, transient transfection, 1:1 RAMP:CLR
The assay can be described thus: S. cerevisiae growth assay, GPA1/Gαi chimera, RAMP1 + CLR. The protocol: FIGURE 3. […] Reporter gene activity was determined following 20 h of stimulation.
General yeast procedures were performed as described previously ([22], [24]). The human CLR was introduced into yeast cells under the control of the PGK promoter using a plasmid containing ura3 (pDT-PGK). The three human RAMPs were introduced into yeast under the control of the GAPDH promoter using plasmids containing leu2 (p425-GPD) ([25]). S. cerevisiae dual reporter strains expressing chimeras of yeast GPA1(1–467) (GPA1/Gα) with the five C-terminal amino acids of […] human G proteins representing Gαs, Gα16, Gαq, Gαo, Gαi1/2, Gαi3, Gαz, Gα12, Gα13, and Gα14 (MMY84–MMY93) were used in this study ([52]). […] Receptor signaling was measured using the yeast growth assay as described previously ([24]). […] A fluorescein signal was detected as an increase in fluorescence (excitation wavelength = 485 nm, emission wavelength = 535 nm) as a measure of growth. Different concentrations of ligand (0.01 nM–100 μM) were assayed using 96-well plates, and fluorescence was detected using a Tecan Infinite M200 microplate reader (Tecan Ultra Evolution, Reading, UK) or a Mithras LB 940 microplate reader (Berthold Technologies, Harpenden, UK) for 20 h. […]

For assay [2], the target named is T2, RAMP2-CLR (AM1 receptor) (Homo sapiens, UniProt O60895+Q16602).
T2 construct: FLAG; expressed in transfected cells; host or cells: HEK-293 or HEK-293S cells, transient transfection, 1:1 RAMP:CLR
The assay can be described thus: (Ca^2+)i mobilization, HEK-293 cells, RAMP2 + CLR. The conditions noted are these: mean ± S.E., n = 5. As for the experimental part:
(§1) HEK-293 cells were transfected with FuGENE 6 (Roche Applied Science) in accordance with the manufacturer's instructions using a 1:3 (w:v) DNA:FuGENE ratio and a 1:1 ratio of RAMP to CLR. […] The transfected cell lines were grown for 24–48 h prior to assaying.
(§2) Transfected HEK-293 cells were grown to confluence in black, clear bottomed, 96-well plates. […] Cells were then washed followed by the addition of 100 μl of Ca^2+-free Hanks' balanced salt solution. […] Recordings were obtained every 0.5 s for 120 s. Peak magnitude was calculated using five-point smoothing followed by correction against background fluorescence. The peak was used to generate concentration-response curves and normalized relative to 10 μM ionomycin.
(§3) Data analysis for cAMP assays was performed in GraphPad Prism 6.0f (San Diego, CA). […] These values were then used to quantify signaling bias as change in log (τ/Ka) relative to the natural cognate ligand for the respective receptor ([41]). […] Statistical differences were analyzed using one-way ANOVA or Student's t test as appropriate with post hoc Bonferroni's or Dunnett's multiple comparisons, and p < 0.05 was considered significant. […] To quantitate the ligand-dependent response in the yeast system, a strain lacking GPA1 (MMY11), grown in rich medium, was used as a standard ([72]). […]

Assay [3] has as its target T2, RAMP2-CLR (AM1 receptor). The assay can be described thus: (Ca^2+)i mobilization, HEK-293S cells, RAMP2 + CLR. The following applies: mean ± S.E. The protocol: as §1, §2, §3

Consider `CSCC[C@H](NC(=O)[C@H](CC(C)C)NC(=O)[C@H](CCC(N)=O)NC(=O)[C@H](Cc1c[nH]c2ccccc12)NC(=O)[C@H](CC(C)C)NC(=O)[C@H](CCCNC(=N)N)NC(=O)[C@H](Cc1c[nH]cn1)NC(=O)[C@H](CO)NC(=O)[C@H](CC(C)C)NC(=O)[C@H](CC(N)=O)NC(=O)[C@H](CCC(N)=O)NC(=O)[C@@H](NC(=O)[C@H](CCC(N)=O)NC(=O)[C@@H]1CSSC[C@H](NC(=O)CNC(=O)[C@@H](NC(=O)[C@H](CCCNC(=N)N)NC(=O)[C@H](CC(C)C)NC(=O)[C@H](CC(C)C)NC(=O)[C@H](CCC(N)=O)NC(=O)[C@H](C)NC(=O)[C@H](CCC(N)=O)NC(=O)[C@@H](N)[C@@H](C)O)C(C)C)C(=O)N[C@@H](C(C)C)C(=O)N[C@@H](CC(C)C)C(=O)NCC(=O)N[C@@H]([C@@H](C)O)C(=O)N1)C(C)C)C(=O)NCC(=O)N1CCC[C@H]1C(=O)N[C@@H](C)C(=O)NCC(=O)N[C@@H](CCCNC(=N)N)C(=O)N[C@@H](CCC(N)=O)C(=O)N[C@@H](CC(=O)O)C(=O)N[C@@H](CO)C(=O)N[C@@H](C)C(=O)N1CCC[C@H]1C(=O)N[C@H](C(=O)N[C@@H](CC(=O)O)C(=O)N1CCC[C@H]1C(=O)N[C@@H](CO)C(=O)N[C@@H](CO)C(=O)N1CCC[C@H]1C(=O)N[C@@H](Cc1c[nH]cn1)C(=O)N[C@@H](CO)C(=O)N[C@@H](Cc1ccc(O)cc1)C(N)=O)C(C)C` [AM2, adrenomedullin 2], for which the EC50 was 2.69 nM in assay [1]; 38.9 nM on RAMP2-CLR (AM1 receptor) [2] (HEK-293, Fluo-4/AM, peak over 120 s); 38 nM at RAMP2-CLR (AM1 receptor) [3] (Fluo-4/AM, peak over 120 s, n = 5). Also, the Kd in assay [1] is 5.75 nM; on RAMP2-CLR (AM1 receptor) [2] (operational model, HEK-293, read-out: pKa (negative log of equilibrium dissociation constant) (converted)) it was 70.8 nM; at RAMP2-CLR (AM1 receptor) [3] (operational model, n = 5, read-out: pKa (negative log of equilibrium dissociation constant) (converted)), 46.8 nM.
